For three molecules, Activity results are on record in ChEMBL document CHEMBL3046404, “The cytotoxic effects of diketopiperaizes against Leishmania donovani promastigotes and amastigotes” (Med Chem Res, 2013).

The subject of the assay is Leishmania donovani. Nature of the assay: Antileishmanial activity against amastigote form of Leishmania donovani MHOH/IN/1983/AG83 infected BALB/c mouse peritoneal macrophages after 48 hr by Geimsa staining method. Format: functional, organism-based.

Turning to `O=C1CN(c2cccc(Cl)c2)C(=O)CN1c1cccc(Cl)c1`, the Activity entry is “Dose-dependent effect”.

Turning to `O=C1CN(c2ccccc2Cl)C(=O)CN1c1ccccc1Cl`, the Activity result was “Dose-dependent effect”.

For the molecule `O=C1CN(C2CCCCC2)C(=O)CN1C1CCCCC1`, the Activity result is “Dose-dependent effect”.
